From article PMC6364417, “Kinase inhibitor library screening identifies synergistic drug combinations effective in sensitive and resistant melanoma cells” (Journal of Experimental & Clinical Cancer Research : CR, 2019)

Legend:
A375 cells (parental) = test: Kinase inhibitor library screening, PrestoBlue cell viability, 1 or 10 μM, 72 h; settings: in %
[1] = system: 501Mel-GP cells (Dabrafenib-resistant); test: as above; settings: 10μΜ, in %

| SMILES | cell viability, A375 Parental, 1μΜ (A375 cells (parental)) | cell viability (kinase inhibitor library screening) [1] |
| --- | --- | --- |
| CS(=O)(=O)CCNCc1ccc(-c2ccc3ncnc(Nc4ccc(OCc5cccc(F)c5)c(Cl)c4)c3c2)o1.Cc1ccc(S(=O)(=O)O)cc1.Cc1ccc(S(=O)(=O)O)cc1 [Lapatinib Ditosylate (Tykerb)] | 102.6 | – |
| CNC(=O)c1cc(Oc2ccc(NC(=O)Nc3ccc(Cl)c(C(F)(F)F)c3)cc2)ccn1 [Sorafenib (Nexavar)] | – | 27.3 |
